Yeast mating assay 2: variants of the scFv Ab-91

Reference: Engelhart et al. 2022, doi:10.1038/s41597-022-01779-4. File: FLAb, binding data.

All variants were tested on one target, the spike HR2 peptide PDVDLGDISGINAS (SARS-CoV-2).

Parent: Ab-91, a human scFv built as VL, a (GGGGS)3 linker, VH. Only the CDRs of the heavy chain vary.
VL: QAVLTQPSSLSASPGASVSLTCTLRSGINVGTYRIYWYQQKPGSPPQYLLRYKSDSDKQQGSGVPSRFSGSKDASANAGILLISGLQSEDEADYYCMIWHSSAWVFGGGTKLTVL
VH: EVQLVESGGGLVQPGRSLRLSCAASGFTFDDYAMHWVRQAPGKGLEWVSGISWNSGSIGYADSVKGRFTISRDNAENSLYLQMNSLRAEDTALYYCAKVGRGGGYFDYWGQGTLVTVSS

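Variants in AAYL51 differ from the parent at up to three CDR positions; double and triple changes were sampled at random. In AlphaSeq, yeast of one mating type display the scFv and yeast of the other type display the target. Mating (16 h, 30 °C) was followed by selection of diploids and sequencing of their barcodes. A regression on co-assayed BCL2-family reference pairs converts the normalised counts of each replicate to an apparent Kd. Each pool was mated in three replicate cultures.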

Positions count from residue 1 of the parent VH; D30Q puts Q in place of D. Every variant below is changed at G56 of the VH (sequential numbering). The Kd shown is the geometric mean over detected replicates; a lower Kd is a better binder. Where no diploid with the target was found in any replicate, the entry reads "nd": below detection, most likely a poor binder, though not proof of it. Three control strains display no target. For library AAYL51, 21% of the pairings with them gave a signal, with a median of 34 µM and one signal in twenty below 1.8 µM, so weak values seen in few replicates may be background.

Variant D30Q+G56A showed 14 nM (3 of 3 replicates). With F29K+G56E+S63F the result was 14 µM (1 of 3 replicates). With F29Q+S52N+G56L the result was nd (0 of 3 replicates). With I51D+W53H+G56S the result was nd (0 of 3 replicates). Variant G50H+G56N+G102N gave nd (0 of 3 replicates). Variant G26I+G56Q+Y60L gave 37 µM (3 of 3 replicates). With G56P+A61W the result was nd (0 of 3 replicates). For G56M+Y60D+Y108C, the assay gave 4.6 µM (2 of 3 replicates).

With S52R+G56M the result was 14 µM (1 of 3 replicates). With G56A+S63G+F106G the result was 7.6 µM (1 of 3 replicates). Variant G26S+G56H+A61I showed nd (0 of 3 replicates). With N54D+G56V+V99A the result was 2.1 nM (3 of 3 replicates). For I51D+G56R+V64I, the assay gave 35 µM (3 of 3 replicates). Variant S52F+G56V+G103L gave 35 µM (1 of 3 replicates). With T28C+G56S+G102Q the result was 11 µM (2 of 3 replicates). With N54A+G56Q+G100A the result was nd (0 of 3 replicates).

Variant G56F+A61K+V99P showed 280 µM (3 of 3 replicates). Variant G56F+V99P+Y105N gave 14 µM (1 of 3 replicates). With A33L+N54I+G56H the result was nd (0 of 3 replicates). Variant G56A+G103D showed nd (0 of 3 replicates). With A33V+W53D+G56P the result was 210 nM (1 of 3 replicates). Variant I51S+G56I+A61V showed nd (0 of 3 replicates). Variant Y32V+G50L+G56Q gave nd (0 of 3 replicates). With G56K+Y60P the result was nd (0 of 3 replicates).

With G56I+K65Q the result was 1.2 µM (3 of 3 replicates). With G26C+G56L+I58W the result was 42 µM (3 of 3 replicates). For G56E+Y60H+V99Q, the assay gave 44 µM (2 of 3 replicates). With G56W+G100C+D107A the result was nd (0 of 3 replicates). For F27S+D30H+G56L, the assay gave 6.3 µM (3 of 3 replicates). Variant D31S+G56F+K65P gave 16 µM (1 of 3 replicates).

The opening 2 entries, copied out:

{"changes": "D30Q+G56A", "Kd (apparent)": "14 nM", "replicates with signal": "3 of 3"}
{"changes": "F29K+G56E+S63F", "Kd (apparent)": "14 µM", "replicates with signal": "1 of 3"}

For reference, the parent read 72 nM as the reference entry and 7.5 nM as a member of this library.